The assay concerns the target T1, rEg-DHFR (Echinococcus granulosus, UniProt U6JJS2).
T1 sequence (U6JJS2 1-191): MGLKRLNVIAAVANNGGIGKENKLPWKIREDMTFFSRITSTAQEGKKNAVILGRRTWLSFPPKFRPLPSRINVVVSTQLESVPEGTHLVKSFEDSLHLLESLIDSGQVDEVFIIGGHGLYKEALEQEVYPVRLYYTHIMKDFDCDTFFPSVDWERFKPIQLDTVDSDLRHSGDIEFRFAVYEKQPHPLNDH
The assay is described as follows: Inhibition of rEg-DHFR enzyme activity by antifolates (DHFR assay kit, absorbance 340 nm). In kind it is biochemical.

Each structure is given as a SMILES string.

In general, IC50 refers to the concentration needed to halve the response being measured.

For `CN(Cc1cnc2nc(N)nc(N)c2n1)c1ccc(C(=O)N[C@@H](CCC(=O)O)C(=O)O)cc1` [Methotrexate, methotrexate], the concentration for half-maximal inhibition (IC50) came out at 0.0278 ± 0.00103 µM.

Source of the values: PMC5428777, “Molecular Characteristics and Serodiagnostic Potential of Dihydrofolate Reductase from Echinococcus granulosus” (Scientific Reports, 2017).
